In ChEMBL document CHEMBL2375230 (J Med Chem, 2013) one finds Ratio data, which are given here for one molecule.

What all share (type): cell-based
For test [1], the system named is MCF7. Nature of the test: Inhibition of methionine aminopeptidase in human MCF7 cells assessed as increase in ratio of unprocessed 14-3-3gamma to total 14-3-3gamma at 0.1 uM after 24 hrs by immunoblotting analysis relative to DMSO-treated control. For orientation: A western blot detects proteins with antibodies after separation by electrophoresis.
Test [2] has as its system PC-3. Nature of the test: Inhibition of methionine aminopeptidase in human PC3 cells assessed as increase in ratio of unprocessed 14-3-3gamma to total 14-3-3gamma at 0.1 uM after 24 hrs by immunoblotting analysis relative to DMSO-treated control.
Test [3] concerns HeLa. Nature of the test: Inhibition of methionine aminopeptidase in human HeLa cells assessed as increase in ratio of unprocessed 14-3-3gamma to total 14-3-3gamma at 0.1 uM after 24 hrs by immunoblotting analysis relative to DMSO-treated control.
The subject of test [4] is E6-1. Put plainly: Inhibition of methionine aminopeptidase in human Jurkat E6-1 cells assessed as increase in ratio of unprocessed 14-3-3gamma to total 14-3-3gamma at 0.1 uM after 24 hrs by immunoblotting analysis relative to DMSO-treated control.

Take `CO[C@@H]1[C@H](OC(=O)NC(=O)CCl)CC[C@]2(CO2)[C@H]1[C@@]1(C)O[C@@H]1CC=C(C)C`: the Ratio is 1.3 in test [1], 1.1 in test [2], 1.6 in test [3] and 1 in test [4].
